One compound from patent US9718840B2, “Condensed 5-oxazolidinone derivative” (SUMITOMO DAINIPPON PHARMA CO., LTD., priority 2014, dated 2017) can be followed below.

Protein sequences, listed by entry. Tags and fused reporters are not part of them. Residues count along the entry.
UniProt P03951, 19-387 partner limits assumed: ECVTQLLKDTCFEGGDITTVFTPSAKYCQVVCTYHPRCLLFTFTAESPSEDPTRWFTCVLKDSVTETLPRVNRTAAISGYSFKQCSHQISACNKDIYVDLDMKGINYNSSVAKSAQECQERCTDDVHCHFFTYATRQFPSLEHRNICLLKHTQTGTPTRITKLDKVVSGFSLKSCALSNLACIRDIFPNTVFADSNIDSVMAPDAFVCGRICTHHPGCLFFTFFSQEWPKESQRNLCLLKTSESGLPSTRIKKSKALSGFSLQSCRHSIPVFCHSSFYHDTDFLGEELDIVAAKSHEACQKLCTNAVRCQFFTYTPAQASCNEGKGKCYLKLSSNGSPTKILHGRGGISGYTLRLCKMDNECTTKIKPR
UniProt P03951, 388-625 limits assumed: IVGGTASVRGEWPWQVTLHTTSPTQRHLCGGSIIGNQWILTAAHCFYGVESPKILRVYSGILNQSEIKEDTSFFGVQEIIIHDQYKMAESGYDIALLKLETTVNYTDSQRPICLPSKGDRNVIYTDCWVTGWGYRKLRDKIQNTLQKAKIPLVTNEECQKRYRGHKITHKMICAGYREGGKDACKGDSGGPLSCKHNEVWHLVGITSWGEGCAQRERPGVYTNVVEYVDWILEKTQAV

The assay has as its target Human FXIa (Homo sapiens, UniProt P03951). Kind of assay: In vitro activated factor XI (FXIa) inhibition test. It is filed as biochemical. The conditions noted are these: read-out: FXIa Inhibition activity IC50; substrate S-2366, 37° C., 10 minutes.

In the case of `COC1CCC([C@@H]2CCN(C(=O)[C@H]3CC[C@H]([C@H](N)CF)CC3)[C@@H]2C(=O)Nc2ccc3[nH]c(C(=O)O)cc3c2)CC1` (stereo partly shown), the IC50 was found to be 0.011 µM.
